Where “and” joins values, the source holds several entries; their conditions need not be identical. Identical values can stand only once. Entries after “also recorded” stand apart in the source; their conditions may differ. Like-named read-outs stand apart in the source and are kept apart here.
How the values were obtained:
[1] = system: KS Y-1 or KS-SLK cells; test: KS clonogenic assay; type: cell-based, human; conditions: 2 KS cell lines; peptides 50 nmoles/ml, CR127 2 nmoles/ml; 10 days
Experimental: Briefly, the KS Y-1 cells were obtained from mononuclear cells isolated from pleural effusion of an AIDS patient with KS involving the lungs. After the depletion of T lymphocytes, monocytes/macrophages and fibroblasts by the cytotoxicity method, using monoclonal antibodies against CD2, CD3, CD4, CD8, CD10 and CD14 membrane antigens and baby rabbit complement, the cells were cultured in the absence of exogenous growth factors to select for transformed cells.

[2] = system: Kaposi's Sarcoma; conditions: literature; cited from earlier work
[3] = system: KS lesions; conditions: cited from earlier work
[4] = system: Kaposi's sarcoma; test: Kaposi's sarcoma response in patients treated with hCG preparations; type: in vivo, human; parameters: key to KS response: PR = Partial Regression; CR = Complete Regression; PD = Progressive Disease; conditions: for apoptosis in KS tumor biopsies of AIDS-KS patients (in situ immunostaining): intralesional 2000 IU 3 times weekly, 2-3 weeks of therapy
[5] = system: SV40 promoter; test: SV-40 driven CAT construct; type: cell-based; conditions: 250 and 500 IU/ml
[6] = system: CD4+ T cells; test: Normal uninfected monkeys treated with hCG preparation; type: in vivo; conditions: 2 uninfected treated animals; from 460 and 470 mm^3; listed as hCG preparation
[7] = system: SIVmac251; test: SIV infected rhesus monkeys treated with hCG preparation; type: in vivo
[8] = system: hematopoietic progenitor cells; test: Hematopoietic progenitor colony assays (CFU-MIX, BFU-e, CFU-GM); type: cell-based; conditions: bone marrow and cord blood; hCG 200 IU/ml, peptides and subunits 100 μg/ml; 10 days
Description: Hematopoietic progenitor cells (2×10^5 cell/ml) were isolated from normal bone marrow and cord blood and seeded in methylcellulose. […] Aggregates containing more than 50 cells after 10 days of culture were counted as colonies.

[9] = system: KS Y-1 tumors; test: KS Y-1 tumors induced in immunodeficient mice; type: in vivo; conditions: treatment from one week after tumor cell injection; peptides 10 μg daily 5 days, hCG APL 100 IU s.c. daily 7 days
Experimental: The effects of the peptides on KS tumor cells were also evaluated in vivo in the mouse model. To induce KS tumors in the mice, 1×10^6/ml KS Y-1 cells in 50 μl PBS or saline were injected subcutaneously into immunodeficient mice (beige-XID-BNX mice). After one week, tumors ranged in size from 2×3 mm to 3×5 mm. Methods for detection of apoptosis (from tissue biopsies) were used, as described in Lunardi-Iskandar, Y. et al.(1995, Nature 375:64-68). Briefly, the samples were stained in situ for the presence of cells with DNA fragmentation. Tissue slides from formalin-fixed tumors were treated with terminal deoxynucleotide transferase for extension of DNA ends (hydroxyl 3′) and incorporation of digoxigenin-11-dUTP according to the manufacturer's instructions (Oncor, Gaithersburg, Md.). Anti-digoxigenin antibody conjugated with the enzyme peroxidase allowed detection of apoptotic cells that stain brown whereas viable cells stain blue.

[10] = highest intralesional dose, 2000 IU 3 times weekly
[11] = lowest intralesional dose, 250 IU 3 times weekly

## recombinant α-chain: purified recombinant α-chain of hCG [reference compound]
[1]
  anti-KS effect in clonogenic assays (number of colonies): no anti-KS effect

## hCG: human chorionic gonadotropin preparation, brand not stated at the place (or both Pregnyl and APL, 'PA')
[2]
  efficacy in the treatment of Kaposi's Sarcoma: efficacious
[3]; [10]
  response of treated KS lesions: 83%
[3]; [11]
  response of treated KS lesions: 16%
[4]; at week 3 of intralesional therapy
  KS lesions, patient PH-VE: regression of KS lesions
[4]; followed by stabilization
  decline of pulmonary KS, patient PH-RF: 75%
[4]; hCG alone
  cutaneous and pulmonary KS, patient PO-GE: complete response
[4]; higher dose hCG, 30,000 IU/week
  recurrent KS, patient PH-VE: responded; also recorded: KS lesion regression
[4]; human, in vivo
  KS response, patients PH-JJ, PH-MH, PH-LG, PH-JPV, PG-16, PG-18: partial responses
  KS response, patients PO-SC and PH-LFA: did not respond to hCG or their disease progressed on therapy
[4]; human, in vivo, po
  pulmonary KS, patient PO-DU: stabilization of pulmonary disease
[4]
  apoptosis in KS tumor biopsies of AIDS-KS patients (in situ immunostaining): evidence of apoptosis and/or, histologically, complete absence of the KS tumor
[4]; listed as hCG preparation
  apoptosis in KS tumor biopsies of AIDS-KS patients (in situ immunostaining): evidence of apoptosis in all cells
  KS response: PR and CR
[4]; of 10 patients with advanced disease treated systemically, 15,000 to 30,000 IU
  patients with marked responses: 6
[4]; of 15 protocol patients from the Belgium trial
  additional patients with KS responses by ACTGO criteria: 4
[4]; patients PO-DU, PO-GE, PH-JPV, PH-RF, systemic 15,000 to 30,000 IU
  regression of visceral KS: ≥ 75%
[4]; pulmonary and gastric KS, after one month of hCG alone
  pulmonary function test, patient PH-JPV: dramatically improved
[4]; stabilization of disease at week 6
  week at which complete regression was recorded, patient PH-GA: 14 week
[4]; systemic hCG
  KS response, patients PG2 and PG5: exhibited a KS response
[4]; systemic protocol 35,000 IU/week, followed for more than 4 months
  patients with substantial anti-KS effect / regression of KS: 4 of the 5 and 4 of 5
[5]
  transcription of the SV-40 driven CAT construct: no effect
[6]
  CD4+ T cells after treatment: 520 mm^3 and 650 mm^3

## hCG APL: commercial preparation of native hCG (APL, Wyeth Ayerst)
[7]; 3 SIV infected monkeys, 3,000 IU 2 times weekly from 3 weeks after inoculation
  Weight gain: 2 to 4 kg
[7]; 3,000 IU 2 times weekly, maintained over 7 months
  SIV p27 antigen in plasma: marked decrease
[7]; followed for 7 months
  disease or SIV resistance to the hCG preparation: no evidence of disease or SIV resistance
[8]
  growth of hematopoietic progenitors (colonies): directly promoted
[9]
  effect on KS Y-1 tumors in mice (cell death, thin sections): comparable
[3]; [10]
  response of treated KS lesions: 83%
[3]; [11]
  response of treated KS lesions: 8%
[4]; listed as APL
  KS response: PD (3×) and CR and Stable (5×) and PR (2×)

## CR127: highly purified native hCG heterodimer supplied by the National Hormone and Pituitary Program, NIH [reference compound]
[1]
  anti-KS effect in clonogenic assays (number of colonies): inactive

## hCG Pregnyl: commercial native hCG preparation, Pregnyl (Organon)
[4]
  KS response: PR (5×) and CR (3×) and Stable (2×) and PD (4×) and PD (Died) (2×)

Source: patent US6699656B2, “Treatment and prevention of HIV infection by administration of derivatives of human chorionic gonadotropin” (University of Maryland Biotechnology Institute, priority 1996, dated 2004)
